The numbers were not newly measured in article PMC8437142 (The Journal of physiology, 2021), which cites them from elsewhere.

Molecules are shown by their SMILES. Counter-ions that a name gives are not always drawn.

For data set [1] the following is noted: ref Hutchinson et al., 2008a; cited from earlier work.
The subject of data set [2] is mu opioid receptors. As to conditions: at the dose studied (4 mg/kg s.c.); ref Hutchinson et al., 2008a; cited from earlier work.

For `CN1CC[C@]23c4c5ccc(O)c4O[C@H]2[C@@H](O)C=C[C@H]3[C@H]1C5` [Morphine, Morphine sulfate], the “time to reach significant blood concentrations” value in data set [1] is ~ 15 minutes. Besides, the “duration of mu opioid receptor agonism” value in data set [2] is ~ 2 hours.
